Tested on: Myf-5, myogenin, follistatin
Assay: Western blotting of muscle protein expression after a single oral dose
Settings: 5-month old mice, oral 80 mg/kg body weight, back and quadriceps muscles, 24 hours, vs control

CCCC(C)(CO[N+](=O)[O-])CO[N+](=O)[O-]
increase: expression of Myf-5 | expression of follistatin | expression of myogenin

— patent US9023890B2, “Nitrate esters and their use for the treatment of muscle and muscle related diseases” (dated 2015)
